# Values of other authors, collected in patent publication US6998404B2, “Treatment or prevention of acute renal failure” (priority 2001, dated 2006).
# Settings: patients, aminophylline toxicity; cited from earlier work
smiles,measurement,value
Cn1c(=O)c2[nH]cnc2n(C)c1=O [aminophylline],serum theophylline level at which tachyarrhythmias occur (usually supraventricular but including ventricular tachycardia),30-40 micrograms/ml
